The assay has as its target Muscarinic acetylcholine receptor M4 (Homo sapiens, UniProt P08173).

Protein sequences, listed by entry. Tags and fused reporters are not part of them.
UniProt P08173, whole entry: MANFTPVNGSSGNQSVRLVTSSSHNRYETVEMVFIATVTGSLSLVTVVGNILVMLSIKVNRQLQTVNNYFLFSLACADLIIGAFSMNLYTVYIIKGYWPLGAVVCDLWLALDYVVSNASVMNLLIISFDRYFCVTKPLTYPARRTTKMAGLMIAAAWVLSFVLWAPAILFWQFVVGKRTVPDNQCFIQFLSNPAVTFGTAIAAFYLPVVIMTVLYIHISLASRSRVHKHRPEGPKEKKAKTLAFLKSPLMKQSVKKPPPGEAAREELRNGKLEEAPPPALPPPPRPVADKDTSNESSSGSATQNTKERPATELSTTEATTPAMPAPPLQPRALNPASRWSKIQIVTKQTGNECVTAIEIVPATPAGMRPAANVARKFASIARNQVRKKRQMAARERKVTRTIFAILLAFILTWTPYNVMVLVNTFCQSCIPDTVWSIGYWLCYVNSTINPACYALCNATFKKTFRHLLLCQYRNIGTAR

Among the data in ChEMBL document CHEMBL4033702, “Challenges in the development of an M4 PAM preclinical candidate: The discovery, SAR, and in vivo characterization of a series of 3-aminoazetidine-derived amides” (Bioorg Med Chem Lett, 2017) are pEC50 values, retold here.

Activity calls are given as the source filed them. No cut-off for these calls is given here.

For `Cc1nnc2sc(C(=O)NC3CN(N(C)c4ccc(C(F)(F)F)nc4)C3)c(N)c2c1C`, the pEC50 result was “inactive”.
